Data taken from PubChem BioAssay AID652010 (The Scripps Research Institute Molecular Screening Center, 2013).
The entries are a selection whose mix differs from that of the whole data set. Active and inactive are the calls of the source.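 Rule for the calls: active = inhibition above the mean over all tested compounds plus 3 SD (cut at about 3.6% in these data); inactive = the rest.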

assay: relief of DAX-1 repression of SF-1 activity – cell-based, luminescence, SF-1 (NR5A1), full-length DAX-1, primary screen (AID 652010); conditions: HEK293T StAR-luciferase reporter, SF-1/DAX-1 repression relief; at 6.8 µM; active compounds read high;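 note: 0% = DAX-1 cells with DMSO and 100% = cells lacking DAX-1 with DMSO; higher inhibition means more luminescence from relief of DAX-1 repression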

SMILES | inhibition
O=[N+]([O-])c1cc(Oc2ccc([N+](=O)[O-])cc2C(F)(F)F)cc([N+](=O)[O-])c1 | inactive: -3.23%
Cc1cc(=O)[nH]c(N[N+](=O)[O-])n1 | inactive: 0.53%
O=C(OC1CN2CCC1CC2)C12CC3CC(CC(C3)C1)C2 (centres undefined) | inactive: -0.37%
Cc1c2c(nc3ccccc13)SC(C(Cl)Cl)C2 (centres undefined) | inactive: 0.36%
COc1cc(I)ccc1[As](=O)(O)O | inactive: -0.5%
COc1ccc2nc(NP(=O)(c3ccccc3)c3ccccc3)sc2c1 | inactive: 0.08%
O=P1(N(CCCl)CCCl)Nc2ccccc2N1 | inactive: 3.43%
O=P1(N(CCCl)CCCl)OCCCN1CCCl (centres undefined) | inactive: -0.17%
CCOC(=O)c1ccc(NC(=O)C(C)(CCl)SC)cc1 (centres undefined) | inactive: 0.54%
O=C(OC1CN2CCC1CC2)c1cccc([N+](=O)[O-])c1 (centres undefined) | inactive: 0.17%
CCC(C)N(CC(C)C)C(=S)SC(NC(C)=O)C(Cl)(Cl)Cl (centres undefined) | inactive: 0.07%
COC(=O)C1(C)COP(=O)(N2CCCC2)OC1 (centres undefined) | inactive: 1.08%
COP1(=S)c2c(C)nn(CCC#N)c2N=C(c2ccc(F)cc2)N1C (centres undefined) | inactive: 0.52%
O=C(Nc1ccncc1[N+](=O)[O-])c1ccc([N+](=O)[O-])cc1[N+](=O)[O-] | inactive: -0.7%
O=C(COc1ccccc1)OC1CN2CCC1CC2 (centres undefined) | inactive: -0.03%
O=C(O)C(=O)c1ccc(N(CCCl)CCCl)cc1 | inactive: -0.71%
CCOC(=O)Nc1cccc([As](=O)(O)O)c1 | inactive: -0.13%
O=[N+]([O-])c1ccc(Nc2ccc(Oc3ccc([N+](=O)[O-])cc3[N+](=O)[O-])cc2)c([N+](=O)[O-])c1 | inactive: -0.33%
O=P(Nc1ccccn1)(c1cccc2ccccc12)c1cccc2ccccc12 | inactive: -0.59%
Cc1cc(SC(NC=O)C(Cl)(Cl)Cl)ncn1 (centres undefined) | inactive: -0.19%
CC1CCNP(=O)(N(CCCl)CCCl)O1 (centres undefined) | inactive: 0.95%
CCOC(=O)Nc1ccc([As](=O)(O)O)c(O)c1 | inactive: -0.15%
O=C(O)C(O)c1ccc(N(CCCl)CCCl)cc1 (centres undefined) | inactive: -0.06%
Cc1cc(SC(NC(=O)c2ccccc2)C(Cl)(Cl)Cl)nc(C(C)C)n1 (centres undefined) | inactive: -0.58%
CCCCOc1ccc(C(=O)NCC2(N3CCCCC3)CCCCC2)cc1OC | inactive: 1.43%

SMILES | inhibition
COP(=O)(OC)N1CC1c1ccccc1 (centres undefined) | inactive: 0.11%
O=P1(Nc2ncccn2)COc2ccccc2OC1 | inactive: 0.22%
Cc1ccc(S(=O)(=O)N(CCCN)CCCc2c(C)nc(N)[nH]c2=O)cc1 | inactive: 0.53%
O=P1(Nc2ccc(Br)cn2)COc2ccccc2OC1 | inactive: -1.19%
NS(=O)(=O)c1cccc(NC(=O)COC(=O)C(O)(c2ccccc2)c2ccccc2)c1 | inactive: -1.53%
O=[As](O)(c1cccs1)c1cccs1 | inactive: -0.05%
Cc1ccc(OCC(=O)OC2CN3CCC2CC3)cc1 (centres undefined) | inactive: -0.23%
Nc1cccc([As](=O)(O)c2ccccc2)c1 | inactive: 0.84%
CC1CCC(C(C)C)C(OP(=O)(Nc2ccccn2)c2ccccc2)C1 (centres undefined) | inactive: -0.35%
Cc1ccc(C(=O)OC2CN3CCC2CC3)cc1 (centres undefined) | inactive: 0.22%
Cc1nn(-c2ccccc2)c2c1P(=O)(N1CCOCC1)N(C)C(c1ccccc1)=N2 (centres undefined) | inactive: -0.42%
CCCC1OP(=O)(Nc2ccccc2)OCC1CC (centres undefined) | inactive: -0.45%
O=C(/C=C/c1ccccc1)OC1CN2CCC1CC2 (centres undefined) | inactive: 0.13%
CN(C)C1(CNC(=O)c2ccc(S(C)(=O)=O)cc2)CCCCC1 | inactive: -0.17%
COc1ccccc1CNC(=O)COC(=O)C(O)(c1ccccc1)c1ccccc1 | inactive: 2.24%
CC1(CBr)Cn2c(nc3ccccc3c2=O)S1 (centres undefined) | inactive: -0.44%
CN(C(=O)Cc1ccc(Cl)c(Cl)c1)C1CCCC[C@@H]1N1CCCC1 (some centres undefined) | inactive: 0.58%
CC(C)/C=N\N=C(\N)N[N+](=O)[O-] | inactive: -0.05%
CN(C(=O)Cc1ccc(Cl)c(Cl)c1)[C@@H]1CCCC[C@H]1N1CCCC1 | inactive: -0.71%
CN(CCCl)Cc1cc(Cl)c(NC2=NCCN2)c(Cl)c1 | inactive: 0.18%
CCOP(=O)(Nc1ccc(C)cn1)OCC | inactive: -0.37%
CCOP(=O)(NC(=NC(C)c1ccccc1)NC(C)c1ccccc1)OCC (centres undefined) | inactive: 0.35%
O=P1(Nc2ccccn2)COc2ccccc2OC1 | inactive: 0.34%
CCC1=CC2Cc3nc4ccc(Cl)cc4c(N)c3C(C1)C2 (centres undefined) | inactive: -0.31%
CC(C)(C)C(=O)NC(Sc1ncccn1)C(Cl)(Cl)Cl (centres undefined) | inactive: 0.19%

SMILES | inhibition
O=P1(N(CCCl)CCCl)NCCC(C(F)(F)F)O1 (centres undefined) | inactive: 0.44%
Clc1n[nH]nc1-c1nn[nH][15n]1 | inactive: 0.05%
CCCOP(=S)(Nc1nc(N)cc(=O)[nH]1)OCCC | inactive: 0.9%
Nc1cccc2c([As](=O)(O)O)cccc12 | inactive: -0.11%
Cc1ccc(NCCc2c([N+](=O)[O-])cc([N+](=O)[O-])cc2[N+](=O)[O-])cc1 | inactive: -1.26%
CCOP(=O)(Nc1cccc2ccccc12)OCC | inactive: 0.34%
COc1cc(C2NCCC3(OCCO3)C2(C)C)cc(OC)c1OC (centres undefined) | inactive: 0.39%
CS(=O)(=O)c1ccc(Cl)c(NC(=O)COC(=O)C(O)(c2ccccc2)c2ccccc2)c1 | inactive: 0.66%
COc1cc(C(=O)NCC2(N3CCOCC3)CCCCC2)cc(Cl)c1OC(C)C | inactive: 0.51%
O=[As](O)(O)c1cccnc1 | inactive: -0.44%
O=C(OC1CN2CCC1CC2)c1ccc(Cl)cc1 (centres undefined) | inactive: 0.22%
O=[As](O)(c1cccc(O)c1)c1cccc(O)c1 | inactive: -0.3%
Cc1cccc(OCC(=O)OC2CN3CCC2CC3)c1 (centres undefined) | inactive: -0.01%
NC(=O)Nc1ccc([As](=O)(O)O)cc1 | inactive: 0.14%
CN(C(=O)Cc1ccc(Cl)c(Cl)c1)[C@H]1CC[C@@]2(CCCO2)C[C@@H]1N1CCCC1 | inactive: 0.68%
CN(C)C(=O)c1cc([N+](=O)[O-])cc2c1-c1c(cc([N+](=O)[O-])cc1[N+](=O)[O-])C2=O | inactive: -1.91%
O=[N+]([O-])c1ccc2c(c1)nnn2O | inactive: 0.55%
CCOP1(=S)c2c(C)nn(CCC#N)c2N=C(c2ccc(F)cc2)N1C (centres undefined) | inactive: 0.18%
CN(C(=O)Cc1ccccc1)[C@@H]1CC[C@]2(CCCO2)C[C@H]1N1CCCC1 | inactive: 0.11%
N#CCCN(C(=O)COC(=O)C(O)(c1ccccc1)c1ccccc1)c1ccc(F)cc1 | inactive: 1.21%
O=P(Nc1nccs1)(Oc1ccccc1)Oc1ccccc1 | inactive: -0.28%
CCOP1(=S)c2c(C)nn(CCC#N)c2N=C(c2ccccc2F)N1C (centres undefined) | inactive: 0.64%
Nc1ccccc1[As](=O)(O)c1ccccc1 | inactive: -0.52%
O=C(O)COc1ccc([As](=O)(O)O)cc1[N+](=O)[O-] | inactive: -0.49%
